Yeast UUG start-1: alters start codon recognition fidelity in yeast; S. cerevisiae UUG-firefly luciferase reporter, luminescence/redox ratio; activity score, % at 18.7 µM; actives 0.13% (n = 350,000); AID 602363;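 active = replicate mean at a twofold rise or more, about +100% in these data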;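 also: firefly luciferase made from a UUG start codon reports start codon fidelity; reporter light over untreated wells divided by growth signal over untreated wells; some hits fall short of that in this replicate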
Pemphigus Ab inh: inhibitors of pemphigus antibody binding to human desmoglein-3; P32926; DSG3-coupled beads, scFv-anti-DSG3-GFP binding, flow cytometry; stronger effect = lower value; binding (percent of control), % at 10 µM; hit rate 0.48% among 310,000;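 active means binding more than 3 SD below its plate's average and above zero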
MLLE-PAM2 inh: blocks PAM2 peptide binding to the PABP1 MLLE domain | P11940 | GST-MLLE / FITC-PAM2 fluorescence polarization | inhibition, % at 20 µM | hit rate 0.36% among 360,000 | AID 588489; in the data active means inhibition above about 35%, passing the limit was not always enough;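 further: plate controls were DMSO wells with GST-MLLE for no effect and wells lacking GST-MLLE protein for full effect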
eIF4H inh: inhibitors of RNA binding by human eIF4H | Q15056 | eIF4H fluorescence polarization binding assay | inhibition, % at 35 µM | hit rate 0.94% among 290,000;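 further: calls also rest on retests at 20 µM and on dose response follow-up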
PABP polyA inh: blocks human PABP binding to poly(A) RNA. fluorescence polarization. P11940. hit rate 1% among 290,000. AID 2014. calls only at 35 µM;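 further: calls also rest on retests at 20 µM and on dose response follow-up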
Yeast UUG start-2: alters UUG start codon use in yeast; activation, % at 38 µM; AID 652061; S. cerevisiae UUG-start firefly luciferase, luminescence, 4 h; 100% means double the DMSO signal; shares compounds with Yeast UUG start-1; 540 tested, under 10 active;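 active means signal increase whose fitted curve reaches an absolute level of 40 at a concentration under 10 µM; inactive means activity opposite to the expected increase, or the rest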
An asterisk follows results filed as active; i = inactive; / = no result. The list is not random: actives were taken first. Their share in the collection is about 1.5%. Unless noted, how the calls were made is not given here.

Results follow in this order: Yeast UUG start-1 | Pemphigus Ab inh | MLLE-PAM2 inh | eIF4H inh | PABP polyA inh | Yeast UUG start-2
> Cc1c(C(=O)CN2CCCC(C)(C)C2)c2ccccc2n1C
  active | 101.0 | -10.4 | 10.9 | i | -0.7
> O=C(NCC[C@@H]1CC[C@@H](NS(=O)(=O)c2cccc(F)c2)[C@@H](CO)O1)C1CCOCC1
  -11.8 | / | / | / | / | /
> CCN(CC)CCC#CC(O)(c1ccccc1)c1ccccc1
  / | / | -11.0 | 0.2 | i | /
> OC(C#CCN1CCCCCC1)(c1ccccc1)c1cccnc1 (configuration not stated)
  / | 109.3 | -10.4 | -0.9 | i | 21.8
> CC(C)C(O)(C#CCN1CCCC1)c1ccccc1 (configuration not stated)
  / | 98.9 | 0.4 | -6.1 | i | -1.2
> OC(C#CCN1CCCC1)(c1ccccc1)c1cccnc1 (configuration not stated)
  133.6* | 92.2 | 13.4 | 14.9 | i | -4.0
> CCCN(CC#CC(O)(c1ccccc1)c1cccnc1)CCC (configuration not stated)
  / | 100.5 | 2.4 | -2.1 | i | -2.7
> C[C@H](CO)N1C[C@H](C)[C@@H](CN(C)C)Oc2ccc(NC(=O)c3ccncc3)cc2CC1=O
  -8.2 | / | / | / | / | /
> COc1ccc(NC(=O)Nc2ccc3c(c2)CC(=O)N([C@@H](C)CO)C[C@H](C)[C@H](CN(C)C)O3)cc1
  10.4 | / | / | / | / | /
> CC(=O)N1CSCC1C(=O)NNS(=O)(=O)c1ccccc1 (configuration not stated)
  124.0* | 101.6 | -5.3 | -0.7 | i | -5.7
> Cc1cc(O)ccc1C1(c2ccc(O)cc2C)OC(=O)c2ccccc21
  444.1* | 103.5 | -4.0 | -4.7 | i | 6.2
> CC(C)NC(=O)Nc1ccc2c(c1)CC(=O)N([C@H](C)CO)C[C@H](C)[C@@H](CN(C)S(C)(=O)=O)O2
  3.1 | / | / | / | / | /
> COc1ccc(OC)c(C(C(=O)NCc2ccco2)N(C(=O)Cn2nnc3ccccc32)C2CC2)c1 (configuration not stated)
  / | 100.7 | 5.1 | -6.2 | i | /
> COc1ccc(OC)c(C(C(=O)NCc2ccco2)N(C(=O)Cn2nnc3ccccc32)C(C)C)c1 (configuration not stated)
  196.3* | 104.8 | -5.4 | -5.0 | i | 17.5
> COc1ccc(NC(=O)c2noc(C(C)C)c2[N+](=O)[O-])cc1
  528.3* | 93.0 | 3.8 | -3.6 | i | -3.3
> COc1ccc(NC(=O)N(C)C[C@@H]2Oc3cc(-c4ccncc4)ccc3S(=O)(=O)N([C@@H](C)CO)C[C@@H]2C)cc1
  -5.8 | / | / | / | / | /
> Cc1ccccc1-c1ccc2c(c1)O[C@H](CN(C)C(=O)c1ccccn1)[C@@H](C)CN([C@@H](C)CO)S2(=O)=O
  -0.1 | / | / | / | / | /
> Cc1ccccc1-c1ccc2c(c1)O[C@H](CN(C)C(=O)c1ccccn1)[C@H](C)CN([C@H](C)CO)S2(=O)=O
  139.4* | / | / | / | / | i
> COc1ccc(-c2ccc3c(c2)O[C@H](CN(C)C(=O)c2ccccc2F)[C@H](C)CN([C@@H](C)CO)S3(=O)=O)cc1
  27.3 | / | / | / | / | /
> COc1ccc(-c2ccc3c(c2)O[C@H](CN(C)C(=O)c2ccccc2F)[C@H](C)CN([C@H](C)CO)S3(=O)=O)cc1
  25.0* | / | / | / | / | i

The last four entries of the part before open the next one.
Results follow in this order: Yeast UUG start-1 | Pemphigus Ab inh | MLLE-PAM2 inh | eIF4H inh | PABP polyA inh | Yeast UUG start-2
> Cc1ccccc1-c1ccc2c(c1)O[C@H](CN(C)C(=O)c1ccccn1)[C@@H](C)CN([C@@H](C)CO)S2(=O)=O
  -0.1 | / | / | / | / | /
> Cc1ccccc1-c1ccc2c(c1)O[C@H](CN(C)C(=O)c1ccccn1)[C@H](C)CN([C@H](C)CO)S2(=O)=O
  139.4* | / | / | / | / | i
> COc1ccc(-c2ccc3c(c2)O[C@H](CN(C)C(=O)c2ccccc2F)[C@H](C)CN([C@@H](C)CO)S3(=O)=O)cc1
  27.3 | / | / | / | / | /
> COc1ccc(-c2ccc3c(c2)O[C@H](CN(C)C(=O)c2ccccc2F)[C@H](C)CN([C@H](C)CO)S3(=O)=O)cc1
  25.0* | / | / | / | / | i
> C[C@H](CO)N1C[C@H](C)[C@@H](CN(C)C(=O)Nc2ccccc2F)Oc2cc(Br)ccc2S1(=O)=O
  4.6 | 105.5 | 11.5 | / | / | /
> COc1ccc(NC(=O)N(C)C[C@@H]2Oc3cc(-c4ccncc4)ccc3S(=O)(=O)N([C@H](C)CO)C[C@@H]2C)cc1
  172.2* | / | / | / | / | i
> COc1ccccc1NC(=O)N(C)C[C@@H]1Oc2cc(Br)ccc2S(=O)(=O)N([C@@H](C)CO)C[C@H]1C
  109.4* | / | / | / | / | i
> O=C(C[C@@H]1C[C@H]2c3cc(NC(=O)C4CCC4)ccc3O[C@H]2[C@H](CO)O1)NCc1cccnc1
  -22.7 | / | / | / | / | /
> CC(C)C(=O)Nc1cccc(N2CCN(CCCN3C(=O)C4CCCCN4C3=O)CC2)c1 (configuration not stated)
  105.3* | 110.2 | -13.8 | / | / | -3.4
> COc1cccc(Oc2ccc(OC)cc2C(=O)O)c1
  117.3* | / | 1.0 | 0.8 | i | -16.5
> CCc1cccc2c(C(=O)C(F)(F)F)cn(CC(=O)NCC3CCCO3)c12 (configuration not stated)
  / | 108.7 | -7.0 | -3.8 | i | -5.6
> CC(C)C(=O)c1cn(CC(=O)NCC2CCCO2)c2ccccc12 (configuration not stated)
  448.8* | 94.4 | 3.9 | -4.4 | i | 7.6
> CN1CCN(C(=O)C[C@@H]2CC[C@H]3[C@@H](COC[C@@H](O)CN3C(=O)c3ccc(F)cc3)O2)CC1
  -17.3 | / | / | / | / | /
> O=C1CCC(=O)N1OCCCOc1ccc2c(c1)CCC2
  active | / | 2.3 | -17.7 | i | -0.8
> CCOc1ccc(C=NC23CN4CN(CN(C4)C2)C3)cc1
  462.0* | 108.4 | 2.1 | -6.6 | i | 8.4
> O=C(Cn1cc(COc2ccccc2C(F)(F)F)nn1)c1ccc(O)cc1
  140.7* | 96.7 | 8.3 | / | / | 4.4
> CC(=O)Nc1ccc(OCc2cn(CC(=O)c3ccc(O)cc3)nn2)cc1
  96.5* | 100.8 | 3.2 | / | / | -6.7
> COc1cc(C(C)=O)ccc1OCc1cn(CC(=O)c2ccc(O)cc2)nn1
  156.8* | 93.2 | -2.6 | / | / | -1.4
> C[C@@H]1CN([C@H](C)CO)C(=O)c2cccc(NS(=O)(=O)c3cccs3)c2O[C@@H]1CN(C)S(C)(=O)=O
  -3.1 | / | / | / | / | /
> Cc1ccccc1-n1c(SCC(=O)c2cc(C)n(C)c2C)nnc1-c1cccnc1
  / | 82.9 | -19.2 | 15.5 | i | -4.7
> Cc1ccccc1-n1c(SCC(=O)c2c(N)n(C)c(=O)n(C)c2=O)nnc1-c1cccnc1
  / | 84.7 | -18.1 | -11.2 | i | /
> CCOc1ccccc1NC(=O)NC(=O)N(C)S(C)(=O)=O
  436.2* | 94.5 | -4.2 | 3.4 | i | -6.1
> CCCCN(C(=O)NC(=O)Nc1ccccc1OCC)S(C)(=O)=O
  -11.2 | 94.3 | -4.8 | -5.1 | i | /
> CCCc1nc(-c2cc3ccccc3[nH]c2=O)no1
  226.9* | 97.6 | 3.2 | 8.1 | i | 12.7

Continuation:
Assay codes: A = Yeast UUG start-1; B = Pemphigus Ab inh; C = MLLE-PAM2 inh; D = eIF4H inh; E = PABP polyA inh; F = Yeast UUG start-2
mol: CCCc1nc(-c2ccc(-c3ccc(F)cc3)cc2)no1
  A = -8.8 | B = 96.2 | C = -0.2 | D = -4.9 | E = i | F = /
mol: O=C(C[C@@H]1C[C@@H]2c3cc(NC(=O)CC4CC4)ccc3O[C@@H]2[C@H](CO)O1)NCc1ccccc1F
  A = -3.7 | B = / | C = / | D = / | E = / | F = /
mol: Cc1ccccc1S(=O)(=O)NCC[C@H]1CC[C@H](NC(=O)C2CCCCC2)[C@H](CO)O1
  A = 210.9* | B = / | C = / | D = / | E = / | F = i
mol: COc1ccccc1S(=O)(=O)N[C@H]1CC[C@H](CCNC(=O)C2CCCC2)O[C@H]1CO
  A = 224.0* | B = / | C = / | D = / | E = / | F = i
mol: CC(C)c1cn(CC[C@@H]2CC[C@@H](NC(=O)C3CCCC3)[C@H](CO)O2)nn1
  A = 12.8 | B = / | C = / | D = / | E = / | F = /
mol: O=C(CCN1CCCCC1)NCC[C@H]1CC[C@H](NC(=O)C2CCCC2)[C@H](CO)O1
  A = 166.9* | B = / | C = / | D = / | E = / | F = i
mol: Cc1ccccc1S(=O)(=O)NCC[C@H]1CC[C@@H](NC(=O)C2CCCCC2)[C@@H](CO)O1
  A = 9.2 | B = / | C = / | D = / | E = / | F = /

Bioassay records as filed in PubChem BioAssay.
